According to ChEMBL document CHEMBL4311982, “Discovery of novel, potent, isosteviol-based antithrombotic agents” (Eur J Med Chem, 2019):

How the values were obtained:
Homo sapiens [1] = species: Homo sapiens; test: Selectivity index, ratio of Ki for human kallikrein to Ki for human activated Factor X
Homo sapiens [2] = species: Homo sapiens; test: Selectivity index, ratio of Ki for human trypsin to Ki for human activated Factor X
Homo sapiens [3] = species: Homo sapiens; test: Selectivity index, ratio of Ki for human activated Factor IX to Ki for human activated Factor X
Homo sapiens [4] = species: Homo sapiens; test: Selectivity index, ratio of Ki for human activated Factor XI to Ki for human activated Factor X
Homo sapiens [5] = species: Homo sapiens; test: Selectivity index, ratio of Ki for human uPA to Ki for human activated Factor X
Homo sapiens [6] = species: Homo sapiens; test: Selectivity index, ratio of Ki for human chymotrypsin to Ki for human activated Factor X
Homo sapiens [7] = species: Homo sapiens; test: Selectivity index, ratio of Ki for human activated Factor XII to Ki for human activated Factor X
Homo sapiens [8] = species: Homo sapiens; test: Selectivity index, ratio of Ki for human tPA to Ki for human activated Factor X
Homo sapiens [9] = species: Homo sapiens; test: Selectivity index, ratio of Ki for human activated Factor VII to Ki for human activated Factor X

SMILES: CCOC(=O)[C@]1(C)CCC[C@@]2(C)[C@@H]3CC[C@@]4(C)C[C@]3(CC[C@@H]21)C/C4=N\OCC1(C)COC1
- Ratio Ki (Homo sapiens [1]): < 20
- Ratio Ki (Homo sapiens [2]): < 20

SMILES: CCOC(=O)[C@]1(C)CCC[C@@]2(C)[C@@H]3CC[C@@]4(C)C[C@]3(CC[C@@H]21)C/C4=N\OCc1ccsc1
- Ratio Ki (Homo sapiens [3]): > 500
- Ratio Ki (Homo sapiens [1]): 80 to 300
- Ratio Ki (Homo sapiens [4]): 80 to 300
- Ratio Ki (Homo sapiens [5]): 80 to 300
- Ratio Ki (Homo sapiens [6]): > 500
- Ratio Ki (Homo sapiens [7]): > 500
- Ratio Ki (Homo sapiens [8]): 80 to 300
- Ratio Ki (Homo sapiens [9]): > 500
- Ratio Ki (Homo sapiens [2]): 80 to 300
